Values quoted from earlier work in patent publication US8946301B2, “Targeting of T-lymphocytes to treat amyotrophic lateral sclerosis” (ALS Therapy Development Institute, priority 2011, dated 2015).

System: patients with ALS
Settings: Borras-Blasco et al. 1998; cited from earlier work

Nc1nc2ccc(OC(F)(F)F)cc2s1 [Riluzole™]
survival time of ALS patients: prolong survival time
